Results as given in patent US7348421B1, “Methods for production of p-hydroxybenzoate in bacteria” (North Carolina State University, priority 2000, dated 2008).

What was measured:
[1] = tested on: wild-type strain (DOT-T1E); settings: 6, 9, 12 or 15 g/L pHBA; after 50 h of incubation
[2] = tested on: DOT-T1E; settings: glucose plates with 0, 3, 6 or 9 g/L pHBA

O=C(O)c1ccc(O)cc1 [pHBA, p-hydroxybenzoic acid]
cell density after pHBA shock [1]: ≥ 10^9 CFU/mL | colony formation on pHBA plates [2]: formed colonies in all plates
